Measurements as given in PubChem BioAssay AID485272 (The Scripps Research Institute Molecular Screening Center, 2010).
Only a part is listed here, and it is no random draw. Calls of active or inactive are those of the source.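 How the source made its calls: active means percent inhibition above a cutoff equal to the mean of all tested compounds plus 3 SD (cut at about 15% in these data); inactive means the rest.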

Chains of the proteins cited; added tags and fusions are not shown.
UniProt Q9UM07, whole entry: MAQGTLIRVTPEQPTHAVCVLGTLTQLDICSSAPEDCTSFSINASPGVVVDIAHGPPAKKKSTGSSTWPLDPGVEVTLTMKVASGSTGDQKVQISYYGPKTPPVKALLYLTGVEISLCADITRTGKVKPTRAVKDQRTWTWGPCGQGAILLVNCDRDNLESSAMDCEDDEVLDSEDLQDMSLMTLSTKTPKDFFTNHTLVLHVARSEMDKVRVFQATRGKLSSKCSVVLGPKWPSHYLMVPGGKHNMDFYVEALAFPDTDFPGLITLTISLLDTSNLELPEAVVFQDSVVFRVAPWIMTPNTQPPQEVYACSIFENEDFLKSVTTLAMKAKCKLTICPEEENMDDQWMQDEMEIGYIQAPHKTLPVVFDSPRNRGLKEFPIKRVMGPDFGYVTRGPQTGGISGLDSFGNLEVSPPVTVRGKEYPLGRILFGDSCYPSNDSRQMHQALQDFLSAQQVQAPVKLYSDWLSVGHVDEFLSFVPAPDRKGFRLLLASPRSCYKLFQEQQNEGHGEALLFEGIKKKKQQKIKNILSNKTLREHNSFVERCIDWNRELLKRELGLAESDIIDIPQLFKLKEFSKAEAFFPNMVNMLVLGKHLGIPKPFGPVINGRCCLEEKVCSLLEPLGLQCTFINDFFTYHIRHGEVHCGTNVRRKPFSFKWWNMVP

Each compound was assayed against Protein-arginine deiminase type-4 (Homo sapiens) (UniProt Q9UM07) (assay: human PAD4 inhibitors, primary screen, biochemical, fluorescence polarization, 1536-well format (AID 485272;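 further: 0% = PAD4 with RCA probe and DMSO and 100% = probe without PAD4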)). Conditions: recombinant PAD4, RCA probe fluorescence polarization; at 6.36 µM; active compounds read high.
With COc1ccccc1OP(C)(=O)Nc1c(C)cccc1C (stereo unspecified) the inhibition was inactive: 1.21%.
In the case of CN1CCCCC1COC(=O)C1(O)c2ccccc2CCc2ccccc21 (stereo unspecified), the inhibition is reported as inactive: 0.6%.
For CP(=O)(Nc1ccc(SC(F)(F)F)cc1)Oc1ccccc1 (stereo unspecified), the inhibition was inactive: 2.93%.
In the case of O=[N+]([O-])c1cc([N+](=O)[O-])c(Nc2nnnn2CCO)c([N+](=O)[O-])c1, the inhibition is reported as inactive: -1.6%.
In the case of CC1=C2N=C(C=C3N=C(C(C)=C4[N-][C@@](C)([C@@H]5N=C1[C@](C)(CCC(=O)NC[C@@H](C)OP(=O)([O-])O[C@H]1[C@@H](O)[C@@H](n6cnc7cc(C)c(C)cc76)O[C@@H]1CO)[C@H]5CC(N)=O)[C@@](C)(CC(N)=O)[C@@H]4CCC(N)=O)[C@@](C)(CC(N)=O)[C@@H]3CCC(N)=O)C(C)(C)[C@@H]2CCC(N)=O.[C-]#N.[Co+3], the inhibition is reported as active: 27.8%.
For CCOC(=O)C(CC)C1=NC(C)(C)Cc2ccccc21.O=[N+]([O-])c1cc([N+](=O)[O-])c(O)c([N+](=O)[O-])c1 (stereo unspecified), the inhibition was inactive: 0.52%.
With O=[N+]([O-])c1cc([N+](=O)[O-])c(-c2cnn(-c3ccccc3)c2)c([N+](=O)[O-])c1 the inhibition was inactive: -1.45%.
Cc1nc2ccc3ccccc3c2s1.O=[N+]([O-])c1cc([N+](=O)[O-])c(O)c([N+](=O)[O-])c1 was tested, and the inhibition was inactive: -1.58%.
In the case of O=[N+]([O-])c1cc([N+](=O)[O-])c(-n2nnc3ccccc32)c([N+](=O)[O-])c1, the inhibition is reported as inactive: -3.88%.
Cc1ccc(C)c(NP(C)(=O)Oc2ccccc2)c1 (stereo unspecified) was tested, and the inhibition was inactive: -1.36%.
For CP(=O)(Nc1cccc(Br)c1)Oc1ccccc1 (stereo unspecified), the inhibition was inactive: -2.61%.
In the case of Cc1cc(C)cc(OP(C)(=O)Nc2ccccn2)c1 (stereo unspecified), the inhibition is reported as inactive: -3.07%.
In the case of COc1ccccc1OP(C)(=O)Nc1cccc(Br)c1 (stereo unspecified), the inhibition is reported as inactive: 3.16%.
With CCOC(=O)c1ccc(NP(C)(=O)Oc2cc(C)cc(C)c2)cc1 (stereo unspecified) the inhibition was inactive: 3.23%.
For Cc1cc(C)cc(OP(C)(=O)Nc2ccc(C)cc2C)c1 (stereo unspecified), the inhibition was inactive: 3.09%.
CC1=NCCc2c1[nH]c1ccccc21.O=[N+]([O-])c1cc([N+](=O)[O-])c(O)c([N+](=O)[O-])c1 was tested, and the inhibition was inactive: 0.26%.
With O=C(O)c1cccc(Nc2c([N+](=O)[O-])cc([N+](=O)[O-])cc2[N+](=O)[O-])c1 the inhibition was inactive: -2.24%.
For COc1ccccc1OP(C)(=O)Nc1ccc(C)cc1 (stereo unspecified), the inhibition was inactive: 4.1%.
For Cc1ccc(NP(C)(=O)Oc2ccccc2)c(C)c1 (stereo unspecified), the inhibition was inactive: 1.63%.
For CCOC(=O)c1ccc(NP(C)(=O)Oc2ccccc2)cc1 (stereo unspecified), the inhibition was inactive: 0.92%.
With Cc1cc(C)cc(OP(C)(N)=O)c1 (stereo unspecified) the inhibition was inactive: -7.81%.
With COc1ccccc1OP(C)(=O)Nc1cc(Cl)ccc1C (stereo unspecified) the inhibition was inactive: -1.83%.
In the case of COc1ccc(OP(C)(=O)Nc2cccc(F)c2)cc1 (stereo unspecified), the inhibition is reported as inactive: 2.37%.
O=[N+]([O-])c1cc([N+](=O)[O-])c(Nc2cccnc2)c([N+](=O)[O-])c1 was tested, and the inhibition was inactive: -13.1%.
In the case of O=[N+]([O-])c1ccc2c(c1)C=Nc1ccccc1O2, the inhibition is reported as inactive: 9.97%.
CC(C)(C)c1ccc(OP(C)(=O)Nc2ccc(SC(F)(F)F)cc2)cc1 (stereo unspecified) was tested, and the inhibition was inactive: -0.75%.
For Cc1cccc(C)c1OP(C)(N)=O (stereo unspecified), the inhibition was inactive: -3.65%.
CCN(CC)CCCOC(=O)C(O)(c1ccccc1)c1ccccc1 was tested, and the inhibition was inactive: 1.21%.
For CCOC(=O)c1ccc(NP(C)(=O)Oc2ccc(OC)cc2)cc1 (stereo unspecified), the inhibition was inactive: -0.27%.
In the case of O=[N+]([O-])c1cc([N+](=O)[O-])c(O)c([N+](=O)[O-])c1.c1ccc(Oc2ccncc2)cc1, the inhibition is reported as inactive: -7.21%.
With CCOP(C)(=S)SCC(=O)NC(C)C(=O)O (stereo unspecified) the inhibition was inactive: -3.05%.
With CP(=O)(Nc1ccccn1)Oc1ccc(Cl)cc1 (stereo unspecified) the inhibition was inactive: 2.31%.
Cc1cccc(C)c1OP(C)(=O)Nc1ccc(SC(F)(F)F)cc1 (stereo unspecified) was tested, and the inhibition was inactive: 0.79%.
CP(=O)(Nc1ccc(SC(F)(F)F)cc1)Oc1ccc(Cl)cc1 (stereo unspecified) was tested, and the inhibition was inactive: 4.56%.
In the case of CP(=O)(Oc1ccccc1)OC(c1ccccc1)C(F)(F)F (stereo unspecified), the inhibition is reported as inactive: -3.65%.
CCc1ccc(OP(C)(=O)N2CCN(c3ccc([N+](=O)[O-])cc3)CC2)cc1 (stereo unspecified) was tested, and the inhibition was inactive: 2.29%.
With CP(=O)(NC(=O)Nc1ccccc1)Oc1ccccc1 (stereo unspecified) the inhibition was inactive: 2.37%.
For Cc1cc(C)cc(OP(C)(=O)Nc2ccc(SC(F)(F)F)cc2)c1 (stereo unspecified), the inhibition was inactive: 0.39%.
In the case of CP(=S)(Nn1cnnc1)Oc1ccccc1 (stereo unspecified), the inhibition is reported as inactive: -2.51%.
CP(=O)(Nc1ccccc1Br)Oc1ccccc1 (stereo unspecified) was tested, and the inhibition was inactive: -3.46%.
COc1ccccc1OP(C)(=O)Nc1ccccc1 (stereo unspecified) was tested, and the inhibition was inactive: -3.92%.
With Nc1ccc2c(ccc3cccnc32)n1.O=[N+]([O-])c1cc([N+](=O)[O-])c(O)c([N+](=O)[O-])c1 the inhibition was inactive: 2.47%.
With CCOC(=O)c1ccc(NP(C)(=O)Oc2ccc(Cl)cc2)cc1 (stereo unspecified) the inhibition was inactive: 1.99%.
In the case of CP(=O)(OC12CC3CC(CC(C3)C1)C2)OC12CC3CC(CC(C3)C1)C2, the inhibition is reported as inactive: 14.6%.
CC(C)(C)c1ccc(OP(C)(=O)O)cc1 was tested, and the inhibition was inactive: 6.4%.
With COc1ccccc1OP(C)(=O)Nc1ccccc1Br (stereo unspecified) the inhibition was inactive: -0.17%.
In the case of CP(=O)(Nc1ccc(Cl)cc1)Oc1ccc(F)cc1 (stereo unspecified), the inhibition is reported as inactive: 0.33%.
CN(C)C(=O)c1c([N+](=O)[O-])cc([N+](=O)[O-])cc1[N+](=O)[O-] was tested, and the inhibition was inactive: -12%.
For CCN(CC)CC(O)COC(=O)C(O)(c1ccccc1)C1CCCCC1 (stereo unspecified), the inhibition was inactive: -2.75%.
In the case of COc1ccc(OP(C)(=O)Nc2ccc(Br)cc2)cc1 (stereo unspecified), the inhibition is reported as inactive: 2.47%.
COc1ccccc1OP(C)(=O)Nc1c(C)n(C)n(-c2ccccc2)c1=O (stereo unspecified) was tested, and the inhibition was inactive: 0.48%.
For O=C(OCCCN1CCCC1)C(O)(c1ccccc1)C1CCCCC1 (stereo unspecified), the inhibition was inactive: 4.23%.
With CP(=O)(Oc1ccccc1)N1CCOC1=O (stereo unspecified) the inhibition was inactive: -9.26%.
In the case of CCc1ccc(OP(C)(=O)Nc2cccnc2)cc1 (stereo unspecified), the inhibition is reported as inactive: -3.7%.
For O=[N+]([O-])c1cc([N+](=O)[O-])c(Nc2ccccn2)c([N+](=O)[O-])c1, the inhibition was active: 31.7%.
In the case of Cc1c(NP(C)(=O)Oc2ccc(C(C)C)cc2)c(=O)n(-c2ccccc2)n1C (stereo unspecified), the inhibition is reported as inactive: -3.04%.
